According to patent publication US11590126B2, “Benzamide compounds” (Recurium IP Holdings, LLC, priority 2018, dated 2023):

System: HIV-1 (IIIB strain) infected CD4 cells
Experiment: Measurement of caspase release in mock and HIV-1 (IIIB strain) infected CD4 cells
Format: cell-based, human
Conditions: primary CD4 T cells, HIV-1IIIb vs mock infected, FIG. 5

| Compound | selectivity in killing HIV vs. mock infected cells (Caspase 3/7 cell death) |
| --- | --- |
| CC1(C)CCC(CN2CCN(c3ccc(C(=O)NS(=O)(=O)c4ccc(NC[C@H]5CC[C@](C)(O)CC5)c([N+](=O)[O-])c4)c(Oc4cnc5[nH]ccc5c4)c3)CC2)=C(C23CC(C(F)F)(C2)C3)C1 [Example 34, 2-((1H-pyrrolo[2,3-b]pyridin-5-yl)oxy)-4-(4-((2-(3-(difluoromethyl)bicyclo[1.1.1]pentan-1-yl)-4,4-dimethylcyclohex-1-en-1-yl)methyl)piperazin-1-yl)-N-((4-((((1r,4r)-4-hydroxy-4-methylcyclohexyl)methyl)amino)-3-nitrophenyl)sulfonyl)benzamide] | selectivity in killing HIV vs. mock infected cells |
| CC1(C)CCC(CN2CCN(c3ccc(C(=O)NS(=O)(=O)c4ccc(OCC5(F)CCOCC5)c([N+](=O)[O-])c4)c(Oc4cnc5[nH]ccc5c4)c3)CC2)=C(C23CC(C(F)F)(C2)C3)C1 [Example 36, 2-((1H-pyrrolo[2,3-b]pyridin-5-yl)oxy)-4-(4-((2-(3-(difluoromethyl)bicyclo[1.1.1]pentan-1-yl)-4,4-dimethylcyclohex-1-en-1-yl)methyl)piperazin-1-yl)-N-((4-((4-fluorotetrahydro-2H-pyran-4-yl)methoxy)-3-nitrophenyl)sulfonyl)benzamide] | selectivity in killing HIV vs. mock infected cells |
